Reference: patent US10538545B2 (priority 2017, dated 2020)

Legend:
[1] = tested on: AB (wild type) zebrafish embryos; test: Analysis of myocardial contractility and cardiac output in zebrafish embryos; type: in vivo
[2] = tested on: Tg (kdr:EGFP) zebrafish embryos; test: Analysis of vasodilation in zebrafish embryos (dorsal aorta diameter); type: in vivo; details: 3-dpf KDR zebrafish, 30 min; 50 μM DNIC-1b, 50 μM DNIC-2a, 200 μM SNP; control 21.2 ± 0.2
WT-AB zebrafish embryos = test: Toxicity test of DNIC in zebrafish embryos; details: 50 μM DNIC, 200 μM SNP
[3] = incubated 30 minutes on day 3, n = 300

sodium nitroprusside
change of short-axis diameter of the heart and ventricular volume at end diastole (ED) ([1]; 50 μM DNIC-1b, 200 μM SNP, 30 minutes): significant increase
Short Axis Diameter ED(Dd) ([1]; end diastole, 30 min, 50 μM DNIC-1b, 50 μM DNIC-2a, 200 μM SNP, 5 μg/mL epinephrine, control 82.2 ± 2.0): 86.4 ± 1.5 μm
Ventricular Volume ED ([1]; end diastole, prolate spheroid assumed, same treatments, control 0.55 ± 0.02): 0.62 ± 0.06 nL
Short Axis Diameter ES(Ds) ([1]; end systole, 30 min, 50 μM DNIC-1b, 50 μM DNIC-2a, 200 μM SNP, 5 μg/mL epinephrine, control 70.4 ± 2.5): 71.5 ± 1.7 μm
Ventricular Volume ES ([1]; end systole, prolate spheroid assumed, same treatments, control 0.33 ± 0.02): 0.32 ± 0.01 nL
Cardiac Output ([1]; heart rate × (ED volume − ES volume), same treatments, control 25.9 ± 4.5): 42.8 ± 8.2 nL/min
Ventricular Volume ED-ES ([1]; same treatments, control 0.21 ± 0.02): 0.30 ± 0.06 nL
Heart Rate ([1]; same treatments, control 124 ± 4): 143 ± 5 bpm
Vessel Diameter (dorsal aorta diameter) [2]: 25.1±0.8 μm
acute toxicity on zebrafish embryo (WT-AB zebrafish embryos; 3-dpf zebrafish, 30 minutes): no acute toxicity
Survival rate of zebrafish, Day 3 (WT-AB zebrafish embryos; [3]): 100 ± 0.0%
Survival rate of zebrafish, Day 4 (WT-AB zebrafish embryos; [3]): 100 ± 0.0%
Survival rate of zebrafish, Day 5 (WT-AB zebrafish embryos; [3]): 99.2 ± 1.4%

Some compounds may have been tested in ways that are not shown here.
